From patent publication US20210309702A1

Target: VSV-G fused with GFP11 at its C terminus (VSV-G-GFP11) (Vesicular Stomatitis Virus (Indiana strain)) (UniProt P03522)
Experiment: cell-based or functional assay

Question: How did the fold increase in efficiency of Cre delivery, tethered against untethered turn out when “Cre recombinase fused with GFP1-10 (Cre-GFP1-10) (from UniProt P06956 1-343)” was run?
Answer: The fold increase in efficiency of Cre delivery, tethered against untethered was 26 fold.
